Values quoted from earlier work, collected in US20190111103A1, “NOVEL PEPTIDE OR SALT THEREOF, COMPOSITION FOR ENHANCING PROLIFERATION OF FIBROBLAST CELLS AND COMPOSITION FOR ENHANCING ELASTIN PRODUCTION IN FIBROBLAST CELLS AND CHONDROCYTES CONTAINING THE SAME” (Hayashikane Sangyo Co., Ltd., priority 2017, published 2019).

By UniProt entry, the sequences of proteins in these tests, tags left out. Residues count along the entry.
UniProt P12821, 30-1306: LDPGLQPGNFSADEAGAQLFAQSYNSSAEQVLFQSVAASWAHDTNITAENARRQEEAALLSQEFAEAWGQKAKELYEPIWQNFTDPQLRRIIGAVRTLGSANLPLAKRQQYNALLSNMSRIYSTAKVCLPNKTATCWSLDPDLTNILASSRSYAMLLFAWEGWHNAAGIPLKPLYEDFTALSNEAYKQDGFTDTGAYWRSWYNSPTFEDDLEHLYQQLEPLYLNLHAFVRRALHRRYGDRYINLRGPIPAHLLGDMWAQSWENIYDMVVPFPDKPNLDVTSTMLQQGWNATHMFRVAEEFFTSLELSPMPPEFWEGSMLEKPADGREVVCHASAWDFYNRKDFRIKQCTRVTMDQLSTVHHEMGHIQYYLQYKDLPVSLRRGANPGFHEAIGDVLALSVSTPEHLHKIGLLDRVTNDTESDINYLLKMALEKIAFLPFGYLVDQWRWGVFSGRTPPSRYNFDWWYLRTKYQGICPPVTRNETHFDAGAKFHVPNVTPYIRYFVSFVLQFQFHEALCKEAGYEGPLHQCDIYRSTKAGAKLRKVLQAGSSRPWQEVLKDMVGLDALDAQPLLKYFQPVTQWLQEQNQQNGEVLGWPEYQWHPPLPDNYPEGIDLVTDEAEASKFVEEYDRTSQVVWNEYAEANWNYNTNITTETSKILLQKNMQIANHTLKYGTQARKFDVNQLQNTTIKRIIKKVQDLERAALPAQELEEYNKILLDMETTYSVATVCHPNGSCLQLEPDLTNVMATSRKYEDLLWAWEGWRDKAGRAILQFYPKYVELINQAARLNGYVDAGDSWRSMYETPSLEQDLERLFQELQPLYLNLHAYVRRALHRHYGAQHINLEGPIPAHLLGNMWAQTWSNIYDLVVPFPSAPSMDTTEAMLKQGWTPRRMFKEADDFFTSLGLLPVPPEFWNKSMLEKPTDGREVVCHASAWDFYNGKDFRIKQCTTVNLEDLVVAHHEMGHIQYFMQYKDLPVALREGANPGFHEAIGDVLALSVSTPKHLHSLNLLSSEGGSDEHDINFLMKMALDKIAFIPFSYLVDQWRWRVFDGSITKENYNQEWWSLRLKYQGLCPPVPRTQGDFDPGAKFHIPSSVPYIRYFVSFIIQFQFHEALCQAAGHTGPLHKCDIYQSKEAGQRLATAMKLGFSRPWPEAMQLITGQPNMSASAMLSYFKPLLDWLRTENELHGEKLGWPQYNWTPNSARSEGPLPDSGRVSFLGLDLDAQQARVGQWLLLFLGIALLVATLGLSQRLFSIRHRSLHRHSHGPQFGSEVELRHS

Biological target: angiotensin conversion enzyme (Homo sapiens, UniProt P12821)
Conditions: already known, JP Kokai 2007-182424; cited from earlier work

## Val-Pro
  effect on angiotensin conversion enzyme: inhibitory effect
